{
  "source": "patent EP0286252A2",
  "about": "“Anti-cancer composition & method featuring cyanine dyes” (DANA FARBER CANCER INSTITUTE, priority 1987, dated 1988)",
  "test_system": "human melanoma cell line, LOX",
  "assay": "LOX melanoma survival test, nude mice protocol",
  "assay_type": "in vivo, athymic Swiss nu/nu mice",
  "details": "T/C over 145% considered indicative of increased survival or remission",
  "text": "Figs. 1-8 are a plot of survival rates of a cancer in an animal model, either treated as per the invention or untreated. In these plots, \"% survival\" means the % of the total group (treated \"T\" or control \"C\") still surviving on the day in question. The 50% data point is selected for the T/C calculation, as being the point that is statistically meaningful.\nIn the examples that follow, \"nude mice protocol\" refers to conventional xenografted human carcinoma or melanoma cells implanted into athymic mice. […] This has been reported in, e.g., the Journal of the National Cancer Institute, Vol. 74, No. 4, p. 899-903, especially p. […] (April 1985).\nA human melanoma cell line, LOX, was utilized that grows rapidly when innoculated into the peritoneal cavity of athymic mice. Tumors which had been passaged subcutaneously in athymic mice were excised under sterile conditions and converted to a single cell suspension using a metal grid with a 4 mm mesh. […] Cells were then scored for viability with trypan blue and 5 million viable cells made up in 0.1 ml of Dulbecco modified Eagles' medium (DME) were injected intraperitoneally into a group of athymic Swiss nu/nu mice (day 0). […]\nT/C is the ratio, expressed as a percentage, of mean survival age of the treated group, to the mean survival age of the untreated control group.",
  "data": [
    {"smiles": "CCCN1C(=CC=Cc2sc3ccccc3[n+]2CCC)Sc2ccccc21", "note": "[Dye No. 5, 3-propyl-2-[3-(3-propyl-4-benzothia-zolin-2-ylidene)-1-propen-1-yl]benzothiazolium iodide]", "values": [
      {"measurement": "outcome of treatment of the melanoma (verdict in words)", "result": "failure"}
    ]}
  ]
}
